The structures appear in SMILES notation.

Chains of the proteins cited; added tags and fusions are not shown.
UniProt Q9EPT5, whole entry: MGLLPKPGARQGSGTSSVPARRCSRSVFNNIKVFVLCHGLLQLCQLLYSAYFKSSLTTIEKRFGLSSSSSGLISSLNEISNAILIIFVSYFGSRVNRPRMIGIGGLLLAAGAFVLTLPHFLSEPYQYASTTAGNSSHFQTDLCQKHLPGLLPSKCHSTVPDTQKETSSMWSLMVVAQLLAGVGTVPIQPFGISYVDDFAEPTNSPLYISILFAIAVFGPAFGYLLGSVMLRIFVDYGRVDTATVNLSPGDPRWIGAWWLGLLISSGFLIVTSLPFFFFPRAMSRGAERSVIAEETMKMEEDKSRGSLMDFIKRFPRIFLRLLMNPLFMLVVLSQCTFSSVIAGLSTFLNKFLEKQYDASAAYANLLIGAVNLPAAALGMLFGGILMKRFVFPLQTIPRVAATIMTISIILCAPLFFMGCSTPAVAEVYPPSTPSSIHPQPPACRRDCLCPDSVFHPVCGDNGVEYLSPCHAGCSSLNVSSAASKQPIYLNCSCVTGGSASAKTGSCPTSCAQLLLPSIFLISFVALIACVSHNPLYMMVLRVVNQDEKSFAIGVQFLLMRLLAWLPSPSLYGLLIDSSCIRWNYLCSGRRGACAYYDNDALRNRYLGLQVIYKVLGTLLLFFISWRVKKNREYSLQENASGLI

This assay deals with PGT (Mus musculus, UniProt Q9EPT5). As to the kind of experiment: Ovarian morphology (histology) in superovulated mice. The conditions noted are these: hCG+DIDS, twelve hours after hCG.

Turning to `O=S(=O)(O)c1cc(N=C=S)ccc1C=Cc1ccc(N=C=S)cc1S(=O)(=O)O` [DIDS, 4,4′-Diisothiocyanatostilbene-2,2′-disulfonic acid], the ovarian morphology result is “unruptured preovulatory follicles replete with intact MGCs and thick multi-layered follicular walls”.

(Values after patent US20180008569A1, “PROSTAGLANDIN TRANSPORTER INHIBITORS FOR INHIBITING OVULATION” (TEL HASHOMER MEDICAL RESEARCH INFRASTRUCTURE AND SERVICES …, priority 2015, published 2018).)
